From EP4821935A1, “MACROCYCLIC COMPOUND CONTAINING AMIDE SUBSTITUTION” (dated 2026)

What was measured:
AsPc-1 cells = assay: Assay for inhibitory activity for AsPc-1 cell proliferation (CCK-8); details: read-out: Inhibitory activity IC50 for AsPc-1 cell proliferation, 72 h incubation, CCK-8, 5000 nM-0.31 nM
Procedure: AsPc-1 cells in a well-growing state were collected into a centrifuge tube, adjusted to a cell density of 3 × 10^4 cells/mL, and inoculated onto a 96-well plate (100 µL/well). The compounds were added using a nanoliter pipettor such that the final concentrations of the compounds were 5000 nM-0.31 nM (the addition was performed in duplicate). Meanwhile, a control was set. After 72 h of incubation in the cell incubator, the assay reagent CCK-8 (manufacturer: Dojindo Laboratories; 10 µL/well) was added. After 3 h of incubation in the cell incubator, the absorbance values were measured at 450 nm on a PerkinElmer Envision microplate reader. A four-parameter analysis was performed, a dose-response curve was fitted, and IC50 was calculated. A represents that IC50 < 100 nM; B represents that 100 nM ≤ IC50 < 500 nM.

Capan-1 cells = assay: Assay for inhibitory activity for Capan-1 cell proliferation (CCK-8); details: read-out: Inhibitory activity IC50 for Capan-1 cell proliferation, 5 days incubation, CCK-8, 20000 nM-9.1 nM
Procedure: Capan-1 cells in a well-growing state were collected into a centrifuge tube, adjusted to a cell density of 1.5 × 10^4 cells/mL, and inoculated onto a 96-well plate (100 µL/well). The compounds were added using a nanoliter pipettor such that the final concentrations of the compounds were 20000 nM-9.1 nM (the addition was performed in duplicate). Meanwhile, a control was set. After 5 days of incubation in the cell incubator, the assay reagent CCK-8 (manufacturer: Dojindo Laboratories, Beijing; 10 µL/well) was added. After 4 h of incubation in the cell incubator, the absorbance values were measured at 450 nm on a PerkinElmer Envision microplate reader. A four-parameter analysis was performed, a dose-response curve was fitted, and IC50 was calculated. A represents that IC50 < 100 nM; B represents that 100 nM ≤ IC50 < 500 nM. Table 1. Results of cell proliferation inhibition assay for compounds

## CCn1c(-c2cc(N3CCN(C)CC3)cnc2[C@H](C)OC)c2c3cc(ccc31)-c1csc(n1)C[C@H](NC(=O)[C@H](F)Cl)C(=O)N1CCC[C@H](N1)C(=O)OCC(C)(C)C2
AsPc-1 cells
  IC50: < 100 nM
Capan-1 cells
  IC50: < 100 nM
